Tests used:
[1] = molecular target: T1, Advanced glycosylation end product-specific receptor (Homo sapiens, UniProt Q15109); assay: Inhibition of biotinylated human RAGE assessed as bound amyloid beta level after 60 mins by ELISA
How it was run: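 Biotinylated human RAGE (1 µg), oligomerised Aβ1-42 (pre-incubated in PBS for 24 h at 4 °C) and compound were incubated in TBS-T with 2.5% BSA on streptavidin plates for 60 min at ambient temperature. Bound Aβ was detected with HRP-4G8 (1:1000, 60 min), developed with TMB and stopped with sulfuric acid, then read at 450 nm. IC50 was fitted from serial dilutions.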

Protein sequences, listed by entry. Tags and fused reporters are not part of them. Lines headed by an entry give the natural chain unless they say otherwise; changes in a name come on top.
UniProt Q15109: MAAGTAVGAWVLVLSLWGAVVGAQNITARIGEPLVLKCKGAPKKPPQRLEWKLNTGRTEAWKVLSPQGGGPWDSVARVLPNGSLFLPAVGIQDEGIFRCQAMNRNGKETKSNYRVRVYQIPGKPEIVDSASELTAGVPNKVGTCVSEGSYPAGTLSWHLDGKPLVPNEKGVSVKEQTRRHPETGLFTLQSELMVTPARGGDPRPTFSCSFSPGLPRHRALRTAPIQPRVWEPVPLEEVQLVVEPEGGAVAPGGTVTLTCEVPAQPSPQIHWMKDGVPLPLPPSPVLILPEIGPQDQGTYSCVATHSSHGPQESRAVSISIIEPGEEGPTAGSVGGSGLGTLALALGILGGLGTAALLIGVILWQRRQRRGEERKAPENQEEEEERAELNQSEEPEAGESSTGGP

[2] = molecular target: T1, Advanced glycosylation end product-specific receptor; assay: Binding affinity to biotinylated human RAGE by surface plasmon resonance analysis

CCCCOc1cc(OCCCN(CC)CC)ccc1NC(=O)c1cc(-c2ccc(Oc3ccc(F)cc3)cc2)nn1C
IC50 [1]: 1900 nM
Kd [2]: 43.4 µM

— ChEMBL document CHEMBL3232933, “Pyrazole-5-carboxamides, novel inhibitors of receptor for advanced glycation end products (RAGE)” (Eur J Med Chem, 2014)
